Sequences of proteins named here, by UniProt entry; tags and fusion partners are left off. A change or cut given only in a name is not applied to a line headed by its entry.
UniProt P41145: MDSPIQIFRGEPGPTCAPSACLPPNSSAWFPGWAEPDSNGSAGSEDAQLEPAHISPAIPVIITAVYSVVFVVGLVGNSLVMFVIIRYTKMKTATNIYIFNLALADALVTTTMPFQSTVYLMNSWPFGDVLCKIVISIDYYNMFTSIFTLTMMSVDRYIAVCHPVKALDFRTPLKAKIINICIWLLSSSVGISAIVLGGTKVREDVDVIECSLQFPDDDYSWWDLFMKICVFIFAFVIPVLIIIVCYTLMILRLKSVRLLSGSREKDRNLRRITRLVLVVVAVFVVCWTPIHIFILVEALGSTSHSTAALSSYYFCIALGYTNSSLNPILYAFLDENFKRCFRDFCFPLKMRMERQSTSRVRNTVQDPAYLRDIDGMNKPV

According to ChEMBL document CHEMBL1157450, “Potent and selective small-molecule human urotensin-II antagonists with improved pharmacokinetic profiles” (Bioorg Med Chem Lett, 2008):

Biological target: Kappa-type opioid receptor (Homo sapiens, UniProt P41145)
Assay: Agonist activity at kappa opioid receptor
Type: functional

CN(C(=O)Cc1ccc(Cl)c(Cl)c1)[C@H](CN1CCCC1)c1ccccc1 [ICI-199,441]
EC50: 0.4 nM
